Laboratory results published in US9505780B2, “Thienopyranones as kinase and epigenetic inhibitors” (SignalRx Pharmaceuticals, Inc., priority 2014, dated 2016).

The chains behind the UniProt entries cited, without tags or fusion partners. Where a name states a change or a piece, a line headed by the entry shows the natural chain unless it says otherwise.
UniProt P42338: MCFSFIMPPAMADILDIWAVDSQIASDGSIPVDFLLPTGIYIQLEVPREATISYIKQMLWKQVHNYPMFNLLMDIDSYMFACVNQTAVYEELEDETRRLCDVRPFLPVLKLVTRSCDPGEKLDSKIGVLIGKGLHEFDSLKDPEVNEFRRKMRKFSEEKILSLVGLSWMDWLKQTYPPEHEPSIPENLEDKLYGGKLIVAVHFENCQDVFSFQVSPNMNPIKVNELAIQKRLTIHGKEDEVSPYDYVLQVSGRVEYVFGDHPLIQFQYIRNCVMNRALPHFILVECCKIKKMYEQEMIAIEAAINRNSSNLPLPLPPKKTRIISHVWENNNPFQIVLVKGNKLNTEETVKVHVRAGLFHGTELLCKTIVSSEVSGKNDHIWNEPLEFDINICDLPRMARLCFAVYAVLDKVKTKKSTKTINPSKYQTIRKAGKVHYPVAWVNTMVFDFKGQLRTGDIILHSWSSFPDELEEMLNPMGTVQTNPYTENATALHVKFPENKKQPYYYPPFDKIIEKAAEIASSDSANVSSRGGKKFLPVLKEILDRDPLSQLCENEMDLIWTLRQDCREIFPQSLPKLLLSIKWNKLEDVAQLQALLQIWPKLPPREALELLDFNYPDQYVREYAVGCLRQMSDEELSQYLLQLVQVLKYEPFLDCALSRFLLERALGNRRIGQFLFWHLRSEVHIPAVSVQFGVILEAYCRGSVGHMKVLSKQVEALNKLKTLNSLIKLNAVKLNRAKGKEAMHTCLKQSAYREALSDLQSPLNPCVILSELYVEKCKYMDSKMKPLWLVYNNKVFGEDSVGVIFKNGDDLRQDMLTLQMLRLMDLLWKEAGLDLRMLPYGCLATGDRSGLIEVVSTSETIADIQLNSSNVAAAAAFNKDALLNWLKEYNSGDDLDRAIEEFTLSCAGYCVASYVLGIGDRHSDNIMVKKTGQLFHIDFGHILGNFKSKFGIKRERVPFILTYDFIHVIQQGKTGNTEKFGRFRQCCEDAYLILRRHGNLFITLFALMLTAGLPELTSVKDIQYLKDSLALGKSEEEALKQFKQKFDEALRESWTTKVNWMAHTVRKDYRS

Target: PI3Kβ (Homo sapiens (Human), UniProt P42338)
Experiment: PI3K beta isoform inhibition
Format: biochemical
From the text: Inhibitory activity can be determined routinely using known methods and also front commercial vendors offering this service for kinases and bromodomain proteins. […] In vivo, PI3K inhibition can be determined from target tissue biopsies by standard tissue processing to disrupt cells and then performing Western Blot analysis to determine the presence or absence of pAKT (substrate of PI3K) relative to a control sample. The activity of a compound of the invention as an inhibitor of a bromodomain-containing protein, such as a BET protein, such as BRD2, BRD3, BRD4, and/or BRDT, or an isoform or mutant thereof may be determined in vitro, in vivo, or in a cell line. In vitro assays include assays that determine inhibition of bromodomain-containing proteins. Alternatively, inhibitor binding may be determined by running a competition experiment where a provided compound is incubated with a bromodomain-containing protein, such as a BET protein bound to known ligands, labeled or unlabeled. For example, bromodomain inhibition can be determined in vitro using Alpha Screen Technology (http://www.reactionbiology.com/webapps/site/NewsPDFs/Bromodomain%20Assay%20Platform%20for%20Drug%/20Screening%20and%20Discovery.pdf). […]

Structure (SMILES): O=c1cc(N2CCOCC2)oc2c(-c3ccccc3)cccc12 [LY294002, 2-(4-morpholinyl)-8-phenyl-4H-1-benzopyran-4-one, reference compound]
- IC50: 736 nM
